From US8034797B2, “Triazene compounds for the treatment of cancer” (Trin Therapeutics GmbH, priority 2007, dated 2011) come the findings set out here.

This series relates to MAXF 401. In words: MAXF 401 breast tumour xenograft in nude mice. It counts as in vivo. Particulars: for tumour remission: within 4 weeks of treatment. The method, then: All the tests were carried out using female nude mice under standard conditions for the keeping of animals with controlled illumination and temperature. The animals were given water and food as desired.
The increase in the volume of the individual tumours was measured using microcallipers, and the size of the tumour was calculated according to the formula a*b^2/2 (where a is the largest diameter of the tumour and b is the vertical axis). When the tumour volume had increased to 80-120 mm^3, the animals were allocated at random into test groups of in each case 6 animals.
The test compounds (in the form of sodium salts) were dissolved in a saline solution, and 5% Klucel (hydroxypropylcellulose) was added in order to dissolve all the test compounds in the same carrier. […] A volume of 10 ml/kg body weight was injected. Animals that received only the carrier served as control. The test compounds were treated according to the scheme of twice weekly administration over a period of […]. The tumour volume and the body weight were checked twice weekly, and the relative tumour volumes were calculated as the ratio of tumour size to body weight.
On the basis of the relative tumour volumes of the animals treated with the test compounds compared with the tumour volumes of the controls treated only with the carrier, the T/C values were calculated and were used as the index of anti-tumour activity.
Subcutaneous implantation of the tumour and the determination of the tumour volume were carried out as described hereinbefore. The above-mentioned salts of the test substance were administered by ip injection twice weekly in the mentioned doses in the form of an aqueous solution, over a period of 4 weeks. […]
Subcutaneous implantation of the tumour and the determination of tumour volumes were carried out as described hereinbefore. The test substance was administered by ip injection twice weekly in the mentioned doses in the form of the sodium salt as an aqueous solution, over a period of 4 weeks.

[1] abbreviates: equimolar to 350 mg/kg of comparison compound, twice weekly.
[2] abbreviates: equimolar to 350 mg/kg of comparison compound.

`CN(C)/N=N/c1ccc(C(=O)c2ccc(OCCC(=O)NCC(=O)O)cc2)cc1` [Example 2, {3-[4(4-[(1E)-3,3-dimethyl-1-triazenyl]-benzoyl)-phenoxyl]propionylamino} acetic acid]: under setting [1], the tolerability entry is on record as “well tolerated”. In addition, the tumour remission result under setting [2] is “marked tumour remission”.
In the case of `CN(C)/N=N/c1ccc(C(=O)c2ccc(OCCC(=O)NCC(=O)[O-])cc2)cc1.[Na+]` [Example 2a], the tolerability entry (dose range used, ip twice weekly over 4 weeks) is listed as “well tolerated”.
With `CN(C)/N=N/c1ccc(C(=O)c2ccc(OCC(=O)NCC(=O)O)cc2)cc1` [Example 4, {2-[4-(4-[(1E)-3,3-dimethyl-1-triazenyl]-benzoyl)-phenoxy]-acetylamino}acetic acid], the tolerability result under setting [1] is recorded as “well tolerated”. Moreover, the tumour remission entry under setting [2] is on record as “marked tumour remission”.
